Yeast mating assay B: variants of the scFv Ab-14

Reference: Li et al. 2023, doi:10.1038/s41467-023-39022-2. File: FLAb, binding data.

The target is the same throughout: PDVDLGDISGINAS, from the HR2 region of SARS-CoV-2 spike.

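The parent was found by panning a naive human phage display library on the peptide. The variants were designed computationally from a first round of random CDR variants and then made and measured. Several design methods are mixed in this list. In AlphaSeq, yeast of one mating type display the scFv and yeast of the other type display the target. Binding brings cells together so that they mate, and sequencing counts the barcode pairs among the diploids. A regression on co-assayed BCL2-family reference pairs converts the normalised counts of each replicate to an apparent Kd. There are six technical replicates.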

The variants keep the light chain, the linker and the frameworks of Ab-14 (scFv order VH, the linker GGGGSGGGGSGGGGS, VL).
VH: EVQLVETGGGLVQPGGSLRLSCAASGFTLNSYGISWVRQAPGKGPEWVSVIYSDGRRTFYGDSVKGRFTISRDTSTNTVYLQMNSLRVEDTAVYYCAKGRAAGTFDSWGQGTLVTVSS
VL: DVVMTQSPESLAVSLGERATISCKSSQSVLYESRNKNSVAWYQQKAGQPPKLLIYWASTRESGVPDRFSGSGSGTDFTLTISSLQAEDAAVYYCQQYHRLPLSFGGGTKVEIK

Sequences are complete VH domains. Variants here have at most six changes. Affinities are written as log10 Kd with Kd in nM; a lower number is a better binder. The mean shown is taken over the replicates in which the pair was detected. Where no diploid with the target was found in any replicate, the entry reads "nd": below detection, most likely a poor binder, though not proof of it. A sequence measured in both rounds can read differently, since the two assays cover different ranges. The parent sequence was in this pool as ten entries: three were never detected, three once, and four in most replicates, with averages from 0.34 to 2.37. The authors averaged sequences with at least three values out of six and counted those with two or fewer as poor binders. Empty control strains, which show no peptide, gave a signal in 1% of pairings with all heavy chain designs; the median was 2.08 and 95% of these signals were weaker than 0.84. No background was subtracted. For each scFv, signals with the empty controls are counted beside the result.

With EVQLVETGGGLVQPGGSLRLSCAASGFDLNSYGISWVRQAPGKGPEWVSVIYSDGRRTFYGDSVKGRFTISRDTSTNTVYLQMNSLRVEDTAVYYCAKGEAAGTFNSWGQGTLVTVSS the result was 0.26 (6 of 6 replicates; controls 0 of 18). Variant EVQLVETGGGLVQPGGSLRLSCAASGFDLNSYGISWVRQAPGKGPEWVSVIYSDGRRTFYADSVKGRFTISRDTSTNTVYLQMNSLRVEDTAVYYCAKGRAAGKFDSWGQGTLVTVSS gave nd (0 of 6 replicates; controls 0 of 18). Variant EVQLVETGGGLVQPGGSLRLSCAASGFTLNEYGISWVRQAPGKGPEWVSVIYSDGRRTFYGDSVKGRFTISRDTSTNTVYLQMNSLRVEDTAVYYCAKGRAAGTFKQWGQGTLVTVSS showed nd (0 of 6 replicates; controls 0 of 18). Variant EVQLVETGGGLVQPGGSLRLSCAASGFDLNSYGISWVRQAPGKGPEWVSVIYSDGRRTFYGDKVKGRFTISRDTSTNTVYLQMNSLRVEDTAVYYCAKGREAGTFDSWGQGTLVTVSS showed -0.29 (6 of 6 replicates; controls 0 of 18). Variant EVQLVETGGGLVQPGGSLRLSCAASGFTLNETGISWVRQAPGKGPEWVSVIYSDGRETFYGDSVKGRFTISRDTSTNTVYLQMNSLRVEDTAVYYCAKGRAAVTFDQWGQGTLVTVSS showed nd (0 of 6 replicates; controls 0 of 18). Variant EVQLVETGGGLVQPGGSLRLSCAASGFTLNDYGISWVRQAPGKGPEWVSVIYSDGRRVFYLDSVKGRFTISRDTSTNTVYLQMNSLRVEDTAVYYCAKGRASGTFDSWGQGTLVTVSS gave 2.01 (2 of 6 replicates; controls 0 of 18). Variant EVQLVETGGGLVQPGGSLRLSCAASIFTLNEYGISWVRQAPGKGPEWVSVIYSDGRRTFYGDSVKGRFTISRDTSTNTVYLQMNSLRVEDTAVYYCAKGRAAVTFDQWGQGTLVTVSS gave nd (0 of 6 replicates; controls 0 of 18). Variant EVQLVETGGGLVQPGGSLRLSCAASGFTLNEYGISWVRQAPGKGPEWVSVIYSDGRRTFYTDSVKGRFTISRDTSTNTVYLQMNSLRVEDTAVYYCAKGMFAGTFDSWGQGTLVTVSS gave 0.95 (6 of 6 replicates; controls 0 of 18). Variant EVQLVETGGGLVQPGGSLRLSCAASGFTLNSYGISWVRQAPGKGPEWVSVIYSDGRRTFYGDSVKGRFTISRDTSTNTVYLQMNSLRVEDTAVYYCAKGRAVGTFDLWGQGTLVTVSS gave nd (0 of 6 replicates; controls 0 of 18).

With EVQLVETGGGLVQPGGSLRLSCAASGFTLNDYGISWVRQAPGKGPEWVSVIYSDGRRTFYGDSVKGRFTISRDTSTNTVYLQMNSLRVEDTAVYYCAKGRAALTFDVWGQGTLVTVSS the result was nd (0 of 6 replicates; controls 0 of 18). Variant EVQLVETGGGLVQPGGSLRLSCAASGFNLNDYGIQWVRQAPGKGPEWVSVIYSDGRRTFYADSVKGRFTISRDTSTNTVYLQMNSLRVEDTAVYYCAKGQAAGTFDQWGQGTLVTVSS showed 1.36 (2 of 6 replicates; controls 0 of 18). Variant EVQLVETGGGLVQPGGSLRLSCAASGFTLNEYGISWVRQAPGKGPEWVSVIYSDGRRTFYSDSVKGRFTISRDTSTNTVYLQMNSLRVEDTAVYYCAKGRAAGFFMSWGQGTLVTVSS gave -0.24 (6 of 6 replicates; controls 0 of 18). With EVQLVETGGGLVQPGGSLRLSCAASGFCLNEYGISWVRQAPGKGPEWVSVIYSDGRRTFYHDSVKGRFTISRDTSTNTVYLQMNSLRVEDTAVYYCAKGKAAGTFDSWGQGTLVTVSS the result was 0.81 (3 of 6 replicates; controls 0 of 18). With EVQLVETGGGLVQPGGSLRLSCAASGFTLNEYGISWVRQAPGKGPEWVSVIYSDGRRTFYKDSVKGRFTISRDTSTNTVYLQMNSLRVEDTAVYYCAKGFAAGTFDLWGQGTLVTVSS the result was 1.35 (6 of 6 replicates; controls 0 of 18). With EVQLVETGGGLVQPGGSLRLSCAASGKSLNSYGISWVRQAPGKGPEWVSVIYSDGRRTFYTDSVKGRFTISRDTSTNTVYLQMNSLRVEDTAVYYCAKGRTAGTFDSWGQGTLVTVSS the result was 1.35 (6 of 6 replicates; controls 0 of 18). For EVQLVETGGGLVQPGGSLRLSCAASGFTLDSYGISWVRQAPGKGPEWVSVIYSDGRRTFYGDSVKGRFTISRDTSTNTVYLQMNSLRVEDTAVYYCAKGRAAGFFISWGQGTLVTVSS, the assay gave nd (0 of 6 replicates; controls 1 of 18). Variant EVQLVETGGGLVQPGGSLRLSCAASGFTLNSYGISWVRQAPGKGPEWVSVIYSDGRRTFYTDSVKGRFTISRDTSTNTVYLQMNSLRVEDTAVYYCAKGQFAGKFDSWGQGTLVTVSS gave nd (0 of 6 replicates; controls 0 of 18). With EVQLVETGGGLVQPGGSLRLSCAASGFTLNDYGISWVRQAPGKGPEWVSVIYSDGRRTFYGDNVKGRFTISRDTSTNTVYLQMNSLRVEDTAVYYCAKGRAAGYFVSWGQGTLVTVSS the result was nd (0 of 6 replicates; controls 0 of 18).

With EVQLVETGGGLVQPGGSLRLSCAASGFTLNMYGISWVRQAPGKGPEWVSVIYSDGLRTFYGDSVKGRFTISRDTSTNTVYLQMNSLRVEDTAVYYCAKGRAAGTFDSWGQGTLVTVSS the result was 1.86 (6 of 6 replicates; controls 0 of 18). Variant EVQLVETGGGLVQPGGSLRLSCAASGFSLNEYGISWVRQAPGKGPEWVSVIYSDGKRTFYGDSVKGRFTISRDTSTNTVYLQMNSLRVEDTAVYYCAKGRTAGTFWSWGQGTLVTVSS showed -1.17 (6 of 6 replicates; controls 0 of 18).

Top 2 of the variants detected in all replicates, tightest first:

| VH | mean log10 Kd (nM) | seen in | control signals |
|---|---|---|---|
| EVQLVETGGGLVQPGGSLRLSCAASGFSLNEYGISWVRQAPGKGPEWVSVIYSDGKRTFYGDSVKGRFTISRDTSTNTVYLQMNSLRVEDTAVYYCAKGRTAGTFWSWGQGTLVTVSS | -1.17 | 6/6 | 0/18 |
| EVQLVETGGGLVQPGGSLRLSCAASGFDLNSYGISWVRQAPGKGPEWVSVIYSDGRRTFYGDKVKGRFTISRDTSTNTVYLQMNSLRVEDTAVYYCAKGREAGTFDSWGQGTLVTVSS | -0.29 | 6/6 | 0/18 |